From ChEMBL document CHEMBL2086370 (J Med Chem, 2012) come the findings set out here.

Amino acid sequences for entries named in this document (tags omitted). A change or cut given only in a name is not applied to a line headed by its entry.
UniProt P41146: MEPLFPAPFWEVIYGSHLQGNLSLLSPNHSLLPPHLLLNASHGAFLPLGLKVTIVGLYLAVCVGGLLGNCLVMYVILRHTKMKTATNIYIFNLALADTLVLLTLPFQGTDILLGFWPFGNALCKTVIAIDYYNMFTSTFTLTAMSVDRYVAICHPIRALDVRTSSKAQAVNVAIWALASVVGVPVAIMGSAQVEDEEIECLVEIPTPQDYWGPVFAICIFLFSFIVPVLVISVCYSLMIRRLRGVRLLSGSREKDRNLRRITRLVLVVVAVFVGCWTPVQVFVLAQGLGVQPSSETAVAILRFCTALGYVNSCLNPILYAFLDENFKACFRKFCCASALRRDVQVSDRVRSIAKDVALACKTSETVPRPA

Series [1] relates to Nucleic Acid. The series is described as follows: Ratio of drug level in hypothalamus to striatum in Harlan Sprague-Dawley rat at 3 ug/kg, iv after 40 mins by LC-MS/MS analysis. As to conditions: in vivo, 0.003 mg/kg, strain Harlan Sprague-Dawley.
Series [2] concerns Nucleic Acid. As to the kind of experiment: Ratio of drug level in hypothalamus to striatum in Harlan Sprague-Dawley rat at 6 ug/ml, iv up to 60 mins by LC-MS/MS analysis. As to conditions: in vivo, 1 h, strain Harlan Sprague-Dawley.
For another series, the target named is Nociceptin receptor (Homo sapiens, UniProt P41146). As to the kind of experiment: Displacement of [3H]Nociceptin from human recombinant NOP receptor expressed in CHO cells by scintillation counter. Background: In a radioligand displacement assay an active substance lowers the binding of a labelled ligand.
A short description of series [3]: Lipophilicity, log D of the compound at pH 7.4 by potentiometric method. As to conditions: buffer.

SMILES strings stand for the structures. A value given as a limit tells only on which side of the number the result lay.

As to `CN(C)C(=O)[C@@H](Cc1ccccc1F)CN1CCC2(CC1)OCCc1cc(F)sc12.O=C(O)C(O)C(O)C(=O)O`, the Ratio with Nucleic Acid [1] was 3.5.
Regarding `CN(C)C(=O)C(Cc1ccccc1F)CN1CCC2(CC1)OCCc1cc(Cl)sc12.O=C(O)C(O)C(O)C(=O)O` (stereo unspecified), the Ratio in the series with Nucleic Acid [2] amounted to 1.9.
A word on the Ki: it is a dissociation constant, usually derived from enzyme kinetics or from competition with a known ligand. In the case of `CN(C)C(=O)C(Cc1c(F)cccc1F)CN1CCC2(CC1)OCCc1ccsc12` (racemic), on Nociceptin receptor, the Ki is > 10 nM.
In the case of `CN(C)C(=O)C(Cc1ccccc1Cl)CN1CCC2(CC1)OCCc1cc(F)sc12` (single isomer, unassigned; (+)), the Ki on Nociceptin receptor amounted to 0.134 nM. Also, in the series with Nucleic Acid [1], the Ratio was 2.2.
In the case of `CN(C)C(=O)C(Cc1ccccn1)CN1CCC2(CC1)OCCc1ccsc12` (stereo unspecified), the Ki on Nociceptin receptor was > 10 nM.
For `CN(C(=O)C(Cc1ccccc1Cl)CN1CCC2(CC1)OCCc1cc(F)sc12)C1CC1` (single isomer, unassigned; (-)), the Ki at Nociceptin receptor came to 0.194 nM. Further, the Ratio in the series with Nucleic Acid [2] is 0.9.
For the compound `CN(C)C(=O)C(Cc1ccccc1F)CN1CCC2(CC1)OCCc1cc(F)sc12` (stereo unspecified), at Nociceptin receptor, the inhibitory constant (Ki) was found to be 0.396 nM.
The same measure, in the same setting: with `CN(C)C(=O)C(CN1CCC2(CC1)OCCc1cc(F)sc12)Cn1cccn1` (stereo unspecified) the figure was 0.248 nM.
Regarding `NC(=O)C(Cc1ccccc1Cl)CN1CCC2(CC1)OCCc1cc(Cl)sc12` (stereo unspecified), at Nociceptin receptor, the Ki stood at 0.0373 nM. In addition, in the series on Nucleic Acid [2], the Ratio is 1.5.
A word on the logD: it is the decadic logarithm of the distribution of all forms, ionised or not, between an organic phase and buffer at a given pH. A low value points to lower lipophilicity. For `CCn1c(=O)n([C@@H]2CCN(CC3CCCCCCC3)C[C@H]2CO)c2ccccc21`, in series [3], the log distribution coefficient (logD) was 3.36.
As for `CN(C)C(=O)C(CN1CCC2(CC1)OCCc1cc(F)sc12)Cn1cccn1.O=C(O)C(O)C(O)C(=O)O` (stereo unspecified), the Ratio with Nucleic Acid [2] was 3.5.
Same read-out and setting: as for `CN(C)C(=O)C(CN1CCC2(CC1)OCCc1ccsc12)Cn1cccn1.O=C(O)C(O)C(O)C(=O)O` (stereo unspecified), the figure is 0.8.
Turning to `CN(C(=O)C(Cc1ccccc1F)CN1CCC2(CC1)OCCc1cc(F)sc12)C1CC1` (single isomer, unassigned; (-)), the Ki on Nociceptin receptor was 0.0672 nM. The Ratio in the series on Nucleic Acid [2] is 1.8.
Regarding `CN(C)C(=O)C(Cc1ccccc1F)CN1CCC2(CC1)OCCc1ccsc12` (racemic), the Ki at Nociceptin receptor came to 5.16 nM.
Same read-out and setting: with `FCC(Cc1ccccc1Cl)CN1CCC2(CC1)OCCc1ccsc12` (stereo unspecified) the figure was > 10 nM.
Consider `CNC(=O)Cn1c(=O)n(C2CCN([C@@H]3Cc4cccc5cccc3c45)CC2)c2ccccc21`, for which the Ratio in the series on Nucleic Acid [2] was determined as 0.
In the case of `CN(C)C(=O)C(Cc1ccccc1F)CN1CCC2(CC1)OCCc1cc(Cl)sc12` (stereo unspecified), the Ki at Nociceptin receptor came to 0.0892 nM.
`CN(C)C(=O)C(Cc1cscn1)CN1CCC2(CC1)OCc1ccc(F)cc12` (stereo unspecified): on Nociceptin receptor, the Ki came out at 1.64 nM. Moreover, the Ratio in the series with Nucleic Acid [2] was 1.3.
Regarding `CNC(=O)C(Cc1ccccc1F)CN1CCC2(CC1)OCCc1cc(Cl)sc12` (single isomer, unassigned; (-)), at Nociceptin receptor, the Ki amounted to 0.127 nM. The Ratio with Nucleic Acid [2] amounted to 1.6.
On the same counts, the results for `CNC(=O)C(Cc1ccccc1Cl)CN1CCC2(CC1)OCCc1cc(Cl)sc12` (stereo unspecified) are 0.124 nM and 1.9.
With `CN(C)C(=O)C(Cc1ccccc1Cl)CN1CCC2(CC1)OCCc1cc(Cl)sc12.O=C(O)C(O)C(O)C(=O)O` (stereo unspecified), the Ratio in the series with Nucleic Acid [2] is 2.
Turning to `ClCC(Cc1ccccc1Cl)CN1CCC2(CC1)OCCc1ccsc12` (stereo unspecified), the Ki on Nociceptin receptor was > 40 nM.
Same read-out and setting: as for `COc1ccccc1CC(CN1CCC2(CC1)OCCc1ccsc12)C(=O)N(C)C` (stereo unspecified), the figure is > 10 nM.
The same measure, in the same setting: with `CN(C)C(=O)C(Cc1ccccc1)CN1CCC2(CC1)OCCc1ccsc12` (stereo unspecified) the figure was 9.4 nM; with `COCC(Cc1ccccc1Cl)CN1CCC2(CC1)OCCc1ccsc12` (stereo unspecified), > 40 nM.
On the same count and under the same terms, as for `N#CC(Cc1ccccc1Cl)CN1CCC2(CC1)OCCc1ccsc12` (stereo unspecified), the figure is > 40 nM.
`COC(=O)CN1CN(c2ccccc2)C2(CCN(Cc3cccc4ccccc34)CC2)C1=O`: the Ratio in the series with Nucleic Acid [2] worked out at 3.
On to `CN(C)C(=O)[C@@H](Cc1ccccc1F)CN1CCC2(CC1)OCCc1cc(F)sc12`, for which the Ki at Nociceptin receptor is 0.114 nM.
Still for that read-out and setting: as for `CN(C)C(=O)C(Cc1ccccc1Cl)CN1CCC2(CC1)OCCc1cc(Cl)sc12` (stereo unspecified), the figure is 0.169 nM.
